According to paper PMC6128740 (European journal of drug metabolism and pharmacokinetics, 2018):
Read-outs that look alike come from different tables or passages of the source.

Key:
[1] = Tissue distribution of 14C-C3 in mice; assay type: in vivo, C57BL/6J mice
[2] = design: species or system Macaca fascicularis; settings: cynomolgus monkey, in vivo
[3] = mouse, in vivo
[4] = tested on: mice
[5] = tested on: Macaca fascicularis monkeys; settings: monkeys treated for two months, n=5
[6] = Kinetics of 14C-C3 in mouse blood after bolus or osmotic pump administration; settings: 1.1 mg/kg
[7] = 144 hr after single i.p. 1.1 mg/kg

e,e,e, tris malonic acid C60 [C3]
radioactivity remaining in each kidney [1, 7]: about 2.2 % of the dose | radioactivity remaining in the whole liver [1, 7]: about 10.6 % of the administered dose | C3 in bone ([1]; even with chronic administration): only trace amounts | plasma half-life [2]: 8 ± 1 h | plasma half-life [3]: 8.2 ± 0.2 h | metabolism of the compound (mice, after 7 days of treatment): minimal metabolism | HPLC radiochromatogram of plasma vs original stock (in vivo stability) (plasma 2 h and 18 h after single 1.1 mg/kg i.p.): essentially identical to the original C3 stock | LD50 ([4]; chronic delivery for 2 months): > 30 mg/kg/day | deaths ([4]; chronic delivery of 30 mg/kg/day for 2 months): no deaths | LD50 ([4]; single i.p. injection): 80 mg/kg | EKG interval PR ([5]; mean ± SD): 0.08 ± .00 s | EKG interval Q-T ([5]; mean ± SD): 0.20 ± .04 s | Heart Rate (range) [5]: 83–103 bpm | k (first order rate constant) ([6]; i.p.): 0.087 ± 0.007 h⁻¹ | k (first order rate constant) ([6]; i.v.): 0.085 ± 0.002 h⁻¹ | t1/2 ([6]; i.v.0-1: data within the first hour after i.v. injection): 0.8 ± 0.1 h | k (first order rate constant) ([6]; i.v.0-1: first hour after i.v. injection): 0.90 ± 0.12 h⁻¹
